Experimental data published in US6780883B2, “Amide inhibitors of microsomal triglyceride transfer protein” (Warner-Lambert Company, priority 1998, dated 2004).

Protein sequences, listed by entry. Tags and fused reporters are not part of them. Residues count along the entry.
UniProt P04114, 28-4563: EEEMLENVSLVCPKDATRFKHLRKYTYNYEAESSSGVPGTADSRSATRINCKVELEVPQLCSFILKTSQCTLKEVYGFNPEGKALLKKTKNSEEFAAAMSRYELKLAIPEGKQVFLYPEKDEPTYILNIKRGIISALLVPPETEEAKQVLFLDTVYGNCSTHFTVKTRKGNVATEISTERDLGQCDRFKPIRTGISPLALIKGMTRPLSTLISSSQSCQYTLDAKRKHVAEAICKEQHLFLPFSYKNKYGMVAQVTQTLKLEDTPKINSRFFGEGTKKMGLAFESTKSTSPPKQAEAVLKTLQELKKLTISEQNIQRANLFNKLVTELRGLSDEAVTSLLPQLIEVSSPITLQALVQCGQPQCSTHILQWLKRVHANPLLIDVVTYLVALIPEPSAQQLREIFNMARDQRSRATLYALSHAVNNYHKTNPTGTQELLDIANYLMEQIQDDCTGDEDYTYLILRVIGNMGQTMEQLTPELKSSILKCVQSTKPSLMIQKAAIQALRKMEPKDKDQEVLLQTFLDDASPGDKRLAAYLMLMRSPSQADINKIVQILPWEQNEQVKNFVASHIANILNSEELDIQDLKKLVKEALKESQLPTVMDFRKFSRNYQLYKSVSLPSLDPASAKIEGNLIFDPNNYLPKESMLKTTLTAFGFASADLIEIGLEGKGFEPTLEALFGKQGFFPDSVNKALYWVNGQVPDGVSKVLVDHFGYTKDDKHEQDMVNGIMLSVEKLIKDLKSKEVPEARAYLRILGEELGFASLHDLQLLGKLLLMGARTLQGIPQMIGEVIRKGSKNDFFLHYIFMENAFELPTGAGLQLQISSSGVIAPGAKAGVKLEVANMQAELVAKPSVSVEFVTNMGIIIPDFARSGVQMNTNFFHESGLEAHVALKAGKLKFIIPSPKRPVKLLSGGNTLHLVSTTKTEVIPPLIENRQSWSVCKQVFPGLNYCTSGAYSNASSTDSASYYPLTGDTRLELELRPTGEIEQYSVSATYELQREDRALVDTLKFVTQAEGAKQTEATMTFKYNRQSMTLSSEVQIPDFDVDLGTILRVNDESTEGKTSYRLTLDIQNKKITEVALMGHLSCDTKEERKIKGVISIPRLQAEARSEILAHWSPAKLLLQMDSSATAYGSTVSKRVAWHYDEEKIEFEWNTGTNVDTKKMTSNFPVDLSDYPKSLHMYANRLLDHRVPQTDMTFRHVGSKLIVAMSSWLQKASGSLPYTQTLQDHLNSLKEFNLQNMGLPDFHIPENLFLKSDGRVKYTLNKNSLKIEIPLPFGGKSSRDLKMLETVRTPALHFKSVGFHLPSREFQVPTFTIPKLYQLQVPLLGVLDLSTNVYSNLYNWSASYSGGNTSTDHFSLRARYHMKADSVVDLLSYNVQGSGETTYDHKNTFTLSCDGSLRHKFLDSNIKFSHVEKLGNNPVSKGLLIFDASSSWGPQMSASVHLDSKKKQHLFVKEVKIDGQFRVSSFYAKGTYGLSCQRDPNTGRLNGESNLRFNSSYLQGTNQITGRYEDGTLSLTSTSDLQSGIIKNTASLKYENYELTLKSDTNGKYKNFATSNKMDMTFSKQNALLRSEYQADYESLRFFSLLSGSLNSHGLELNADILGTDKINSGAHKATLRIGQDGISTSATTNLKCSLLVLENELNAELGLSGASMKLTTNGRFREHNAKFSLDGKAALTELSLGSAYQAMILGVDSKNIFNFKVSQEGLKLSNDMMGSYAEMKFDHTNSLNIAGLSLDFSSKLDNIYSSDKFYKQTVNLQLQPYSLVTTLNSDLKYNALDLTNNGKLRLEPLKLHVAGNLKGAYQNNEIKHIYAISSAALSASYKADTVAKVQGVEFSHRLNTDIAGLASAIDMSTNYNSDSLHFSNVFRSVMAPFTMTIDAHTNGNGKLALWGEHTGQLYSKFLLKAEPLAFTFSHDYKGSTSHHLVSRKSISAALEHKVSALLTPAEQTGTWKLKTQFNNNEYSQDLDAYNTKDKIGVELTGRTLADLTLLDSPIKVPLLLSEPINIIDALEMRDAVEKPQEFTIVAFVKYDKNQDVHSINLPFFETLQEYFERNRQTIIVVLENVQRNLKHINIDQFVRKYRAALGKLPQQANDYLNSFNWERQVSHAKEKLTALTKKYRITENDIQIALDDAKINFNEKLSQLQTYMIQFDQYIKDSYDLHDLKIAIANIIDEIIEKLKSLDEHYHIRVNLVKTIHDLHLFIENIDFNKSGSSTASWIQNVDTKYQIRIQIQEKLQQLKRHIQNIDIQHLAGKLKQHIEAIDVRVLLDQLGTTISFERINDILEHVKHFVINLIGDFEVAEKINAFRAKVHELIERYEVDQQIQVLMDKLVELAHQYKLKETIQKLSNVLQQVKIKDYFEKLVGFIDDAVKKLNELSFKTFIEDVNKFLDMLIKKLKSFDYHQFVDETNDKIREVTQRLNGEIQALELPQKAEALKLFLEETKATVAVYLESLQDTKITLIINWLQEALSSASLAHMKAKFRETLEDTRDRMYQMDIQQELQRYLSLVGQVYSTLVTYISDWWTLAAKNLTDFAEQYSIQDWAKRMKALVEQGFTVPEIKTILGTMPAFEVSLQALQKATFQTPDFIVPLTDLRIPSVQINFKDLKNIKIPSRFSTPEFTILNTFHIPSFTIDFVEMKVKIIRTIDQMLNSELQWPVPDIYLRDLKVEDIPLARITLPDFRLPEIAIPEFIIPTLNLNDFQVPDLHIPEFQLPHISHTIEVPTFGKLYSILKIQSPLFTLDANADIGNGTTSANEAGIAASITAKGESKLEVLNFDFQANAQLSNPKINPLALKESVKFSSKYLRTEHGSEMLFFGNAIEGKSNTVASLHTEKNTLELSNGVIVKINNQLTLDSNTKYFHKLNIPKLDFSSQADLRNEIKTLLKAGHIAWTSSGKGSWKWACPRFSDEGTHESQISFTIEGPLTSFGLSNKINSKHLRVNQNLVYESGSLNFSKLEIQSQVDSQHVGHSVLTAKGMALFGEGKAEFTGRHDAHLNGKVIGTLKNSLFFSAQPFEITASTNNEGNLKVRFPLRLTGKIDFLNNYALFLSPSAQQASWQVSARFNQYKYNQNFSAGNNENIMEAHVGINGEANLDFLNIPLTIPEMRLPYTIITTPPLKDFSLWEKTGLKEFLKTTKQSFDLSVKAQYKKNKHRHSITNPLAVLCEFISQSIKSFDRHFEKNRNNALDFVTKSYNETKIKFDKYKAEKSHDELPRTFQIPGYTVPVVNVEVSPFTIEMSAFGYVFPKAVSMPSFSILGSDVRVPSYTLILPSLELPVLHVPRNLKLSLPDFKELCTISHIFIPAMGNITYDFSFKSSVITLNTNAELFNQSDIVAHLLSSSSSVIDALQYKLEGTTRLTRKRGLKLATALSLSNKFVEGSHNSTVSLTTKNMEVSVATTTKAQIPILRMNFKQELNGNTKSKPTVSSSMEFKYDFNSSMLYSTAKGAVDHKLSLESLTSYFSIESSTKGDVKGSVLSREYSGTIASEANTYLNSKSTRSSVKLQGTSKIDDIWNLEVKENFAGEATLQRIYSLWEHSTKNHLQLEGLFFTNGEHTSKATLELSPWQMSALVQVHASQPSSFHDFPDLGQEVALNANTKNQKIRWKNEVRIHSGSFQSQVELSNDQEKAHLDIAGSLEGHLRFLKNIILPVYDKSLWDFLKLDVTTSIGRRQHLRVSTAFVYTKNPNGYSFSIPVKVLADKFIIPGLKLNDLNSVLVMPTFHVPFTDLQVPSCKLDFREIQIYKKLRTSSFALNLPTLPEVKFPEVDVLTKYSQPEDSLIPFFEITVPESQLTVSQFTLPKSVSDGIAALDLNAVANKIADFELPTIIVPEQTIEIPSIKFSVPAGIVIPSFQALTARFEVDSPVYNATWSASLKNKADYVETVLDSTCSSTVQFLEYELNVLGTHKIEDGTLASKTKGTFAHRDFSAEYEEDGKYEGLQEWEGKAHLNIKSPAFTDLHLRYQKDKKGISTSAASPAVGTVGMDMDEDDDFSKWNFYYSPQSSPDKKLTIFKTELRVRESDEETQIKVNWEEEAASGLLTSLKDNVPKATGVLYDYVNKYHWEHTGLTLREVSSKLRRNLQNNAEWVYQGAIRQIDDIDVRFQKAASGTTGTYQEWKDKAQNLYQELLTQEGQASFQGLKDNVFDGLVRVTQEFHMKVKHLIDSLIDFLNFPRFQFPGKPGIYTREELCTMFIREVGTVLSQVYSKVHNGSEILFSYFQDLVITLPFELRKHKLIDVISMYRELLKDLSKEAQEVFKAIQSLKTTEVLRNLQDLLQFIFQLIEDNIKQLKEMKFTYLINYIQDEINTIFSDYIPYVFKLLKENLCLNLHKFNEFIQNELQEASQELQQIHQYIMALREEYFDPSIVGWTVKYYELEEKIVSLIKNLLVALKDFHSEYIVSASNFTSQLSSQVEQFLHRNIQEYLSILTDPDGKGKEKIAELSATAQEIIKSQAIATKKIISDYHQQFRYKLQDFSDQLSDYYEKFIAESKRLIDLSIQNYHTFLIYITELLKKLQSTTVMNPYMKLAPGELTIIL
UniProt P08519, 20-2040: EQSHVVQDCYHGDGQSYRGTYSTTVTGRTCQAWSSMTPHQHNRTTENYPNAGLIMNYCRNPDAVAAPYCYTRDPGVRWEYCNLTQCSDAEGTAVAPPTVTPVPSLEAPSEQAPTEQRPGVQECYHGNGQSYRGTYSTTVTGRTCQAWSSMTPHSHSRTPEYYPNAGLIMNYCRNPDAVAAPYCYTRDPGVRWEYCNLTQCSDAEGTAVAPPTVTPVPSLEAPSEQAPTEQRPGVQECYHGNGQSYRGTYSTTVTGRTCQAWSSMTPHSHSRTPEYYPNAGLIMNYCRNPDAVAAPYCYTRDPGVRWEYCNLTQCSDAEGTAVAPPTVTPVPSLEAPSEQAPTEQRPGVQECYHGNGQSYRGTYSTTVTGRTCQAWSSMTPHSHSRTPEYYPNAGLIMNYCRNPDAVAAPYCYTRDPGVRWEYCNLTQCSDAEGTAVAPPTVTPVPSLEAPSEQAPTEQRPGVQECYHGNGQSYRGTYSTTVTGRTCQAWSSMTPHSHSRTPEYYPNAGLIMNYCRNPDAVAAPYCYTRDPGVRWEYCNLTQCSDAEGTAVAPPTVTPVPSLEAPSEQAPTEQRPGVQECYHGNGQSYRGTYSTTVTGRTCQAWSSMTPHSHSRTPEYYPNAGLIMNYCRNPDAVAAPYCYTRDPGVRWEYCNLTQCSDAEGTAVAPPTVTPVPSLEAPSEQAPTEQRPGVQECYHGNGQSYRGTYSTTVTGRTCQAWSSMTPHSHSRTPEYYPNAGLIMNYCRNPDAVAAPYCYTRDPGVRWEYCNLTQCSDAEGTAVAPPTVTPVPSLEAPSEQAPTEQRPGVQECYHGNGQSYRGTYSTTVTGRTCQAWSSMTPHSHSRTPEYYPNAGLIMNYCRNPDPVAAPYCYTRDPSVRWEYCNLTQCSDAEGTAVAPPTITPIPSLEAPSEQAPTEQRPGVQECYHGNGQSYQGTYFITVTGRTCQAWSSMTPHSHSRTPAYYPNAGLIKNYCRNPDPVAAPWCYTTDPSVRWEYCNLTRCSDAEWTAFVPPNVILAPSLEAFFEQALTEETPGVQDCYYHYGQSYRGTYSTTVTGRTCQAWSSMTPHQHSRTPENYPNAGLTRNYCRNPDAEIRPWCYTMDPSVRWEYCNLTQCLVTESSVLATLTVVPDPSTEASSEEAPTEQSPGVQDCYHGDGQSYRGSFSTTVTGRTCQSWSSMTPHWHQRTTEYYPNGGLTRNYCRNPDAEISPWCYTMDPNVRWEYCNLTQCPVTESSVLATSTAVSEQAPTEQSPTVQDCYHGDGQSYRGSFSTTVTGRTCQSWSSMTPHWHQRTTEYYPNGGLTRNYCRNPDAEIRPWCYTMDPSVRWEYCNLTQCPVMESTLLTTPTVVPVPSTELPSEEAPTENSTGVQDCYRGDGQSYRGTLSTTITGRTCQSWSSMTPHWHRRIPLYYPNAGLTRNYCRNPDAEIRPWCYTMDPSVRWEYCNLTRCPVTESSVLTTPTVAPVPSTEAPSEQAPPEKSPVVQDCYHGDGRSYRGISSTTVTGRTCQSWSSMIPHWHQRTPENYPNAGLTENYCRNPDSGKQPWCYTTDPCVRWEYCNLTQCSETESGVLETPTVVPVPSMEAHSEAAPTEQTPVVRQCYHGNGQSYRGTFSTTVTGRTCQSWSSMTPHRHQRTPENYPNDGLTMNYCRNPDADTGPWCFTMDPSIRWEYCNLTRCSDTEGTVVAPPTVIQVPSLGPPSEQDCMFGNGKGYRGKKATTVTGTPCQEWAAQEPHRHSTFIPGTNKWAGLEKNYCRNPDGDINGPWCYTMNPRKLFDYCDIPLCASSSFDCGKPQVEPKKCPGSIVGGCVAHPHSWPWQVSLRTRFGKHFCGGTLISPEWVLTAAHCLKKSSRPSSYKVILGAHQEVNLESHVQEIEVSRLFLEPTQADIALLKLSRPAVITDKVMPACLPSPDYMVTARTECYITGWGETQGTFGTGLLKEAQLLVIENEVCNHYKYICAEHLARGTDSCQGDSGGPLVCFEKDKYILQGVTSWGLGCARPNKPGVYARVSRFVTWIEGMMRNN

Target: apolipoprotein(a), [apo(a)], apolipoproteinB-100, [apoB-100], coupling reaction that generates Lp(a) (Homo sapiens, UniProt P04114+P08519)
Assay: LPABC screen: lipoprotein(a) biochemical coupling assay, Lp(a) content by ELISA
Settings: recombinant apo(a) 17-kringle (293 cell media) + HepG2 conditioned media, 67 minutes, 37° C., 0.3 to 50 μM compound; read-out: Lp ABC IC50
Procedure: LPABC Screen The lipoprotein(a), [Lp(a)], biochemical coupling assay (LPABC) is used to characterize inhibitors of the apolipoprotein(a), [apo(a)], apolipoproteinB-100, [apoB-100], coupling reaction that generates Lp(a). Conditioned media from 293 cells (ATCC CRL-1573), permanently transfected with an apo(a) 17-kringle cDNA expression construct (pcDNA-AMP, In Vitrogen, Carlsbad, Calif.) using standard molecular biology techniques, was used as a source of recombinant apo(a) is diluted 1:3 with phosphate buffered saline (PBS) and 90 μL is pipetted into each well of a 96-well plate and placed into a 37° C. incubator for 10 minutes. Twenty microliters of a 0.3 to 50 μM solution of a compound of the present invention in PBS is added to the warmed plate. Ninety microliters of HepG2 (ATCC HB-8065) cell conditioned media diluted 1:3 with PBS is added to the apo(a)/compound mixture and mixed by pipetting up and down 5 times. The reaction is incubated for 67 minutes in a 37° C. incubator. A 100 μL aliquot of the reaction is removed and assayed for its Lp(a) content by an enzyme linked immunosorbent assay (ELISA).

## N-Biphenyl-2-ylmethyl-N-(3,4-dimethoxy-phenyl)-2-phenylmethanesulfinyl- [Example 143]
  IC50: > 15 µM
